Results taken from ChEMBL document CHEMBL5528042, “Identification of Novel, Selective Ataxia-Telangiectasia Mutated Kinase Inhibitors with the Ability to Penetrate the Blood-Brain Barrier: The Discovery of AZD1390” (J Med Chem, 2024).

Tests used:
[1] = molecular target: DNA-dependent protein kinase catalytic subunit (Homo sapiens, UniProt P78527); assay: Inhibition of DNA-PK (unknown origin)
[2] = molecular target: Serine/threonine-protein kinase mTOR (Homo sapiens, UniProt P42345); assay: Inhibition of mTOR in human MDA-MB-468 cells incubated for 2.5 hrs by Alexa Fluor 488 staining based fluorescence analysis; format: cell-based

## CN(C)CCCOc1ccc(-c2ccc3ncc4c(c3c2)n(C2CCOCC2)c(=O)n4C)cn1
[1]
  pIC50: 5.3
[2]
  IC50: 1.26 µM
